Measured affinities in a library of Ab-14 heavy chain variants

The measurements come from Engelhart et al. 2022 (doi:10.1038/s41597-022-01779-4) through the FLAb antibody collection.

Target peptide (SARS-CoV-2 spike, HR2 region): PDVDLGDISGINAS

Parent: Ab-14, a human scFv built as VH, the linker GGGGSGGGGSGGGGS, VL. Only the CDRs of the heavy chain vary.
VH: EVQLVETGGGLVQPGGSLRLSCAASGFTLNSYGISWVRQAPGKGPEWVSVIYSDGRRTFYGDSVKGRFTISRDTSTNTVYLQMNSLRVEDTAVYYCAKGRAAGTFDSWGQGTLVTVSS
VL: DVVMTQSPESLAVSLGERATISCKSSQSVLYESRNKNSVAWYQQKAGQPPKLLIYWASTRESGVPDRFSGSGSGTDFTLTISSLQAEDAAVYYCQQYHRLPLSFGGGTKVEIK

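The starting antibody came from a phage panning campaign against this peptide. The library (AAYL49) carries one to three amino acid substitutions per variant, with no insertions or deletions. In AlphaSeq, yeast of one mating type display the scFv and yeast of the other type display the target. Pairs that bind mate more often; barcode pairs of the diploids are counted by sequencing. The ratio of observed to expected reads was calibrated, replicate by replicate, on BCL2-family standards whose Kd was known from biolayer interferometry. Mating was done three times.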

Substitutions are numbered in sequence along the VH above, starting at 1 (not Kabat).
Numbers give log10(Kd / nM), so 0 is 1 nM and 3 is 1 µM. Smaller is tighter.
"ND" means that the variant was in the library but no mating with the target was seen in that replicate; the authors take this as a sign of poor binding, and no number exists.
Nonspecific signal, from three strains lacking the peptide, appeared in 15% of pairings of library AAYL49, centred on 4.06 (5% of these signals below 2.83); values are not corrected for it. The control count says in how many pairings with the empty strains this scFv gave a signal, with their mean in brackets.
Parent in this assay: reference entry 0.65, copy in this library 4.11 (one replicate of three).

changes | log10 Kd, replicates | empty controls
V64R/A101T | ND ND ND | 2 of 9 (3.83)
F27I/T58W/G61N | ND ND 3.73 | 1 of 9 (2.41)
G26H/Y60L/R100W | 4.20 4.08 3.12 | 1 of 9 (3.64)
T28F/L29A/S35V | ND ND ND | 2 of 9 (2.98)
G55R/R56L/F59E | ND 4.13 ND | 2 of 9 (3.92)
K65D/R100Y/G103N | 3.93 4.33 ND | 2 of 9 (3.49)
T28N/Y60R/T104E | ND ND ND | 0 of 9
R56Y/F59M/G61P | 3.63 2.39 3.22 | 3 of 9 (4.38)
T28C/D62N/S107H | 2.70 2.46 3.30 | 4 of 9 (3.94)
T28P/L29A/D106I | ND 2.34 ND | 0 of 9
G99I/A101S/G103A | ND ND ND | 0 of 9
G61N/S63F/R100W | 0.59 0.82 0.52 | 0 of 9
F27N/D62W/V64P | ND ND ND | 1 of 9 (2.98)
G26A/F59T/T104I | ND ND ND | 1 of 9 (4.22)
L29K/V64P/R100W | ND ND 3.74 | 2 of 9 (2.97)
S31K/G99L/A102N | ND ND ND | 0 of 9
S31F/G55R/K65C | ND ND ND | 1 of 9 (4.09)
R56C/R57C/R100M | ND ND ND | 1 of 9 (3.29)
S35W/R57H/F105M | 4.15 ND ND | 1 of 9 (2.35)
G26R/L29D/S63V | ND ND ND | 1 of 9 (2.98)
I51Q/A101R | ND ND ND | 0 of 9
S35K/S53F/S63R | ND ND ND | 1 of 9 (2.46)
N30Q/S53Q/A101K | 2.24 2.22 2.34 | 2 of 9 (4.88)
G99Q/D106S | ND ND ND | 2 of 9 (4.53)
V50H/Y52K/G99K | ND 3.83 5.70 | 2 of 9 (3.60)
V50Y/Y52I/G61Q | ND ND ND | 1 of 9 (4.39)
T28N/I34L | 1.49 1.52 1.70 | 3 of 9 (3.64)
V50F/I51Q/D54F | ND ND ND | 0 of 9
N30A/G103A/D106H | ND 3.59 4.01 | 2 of 9 (3.76)
L29I/K65L/T104D | ND ND ND | 0 of 9
G55I/T58A/D106G | ND ND ND | 0 of 9
I51Q/D62L/S63Y | ND ND 5.38 | 1 of 9 (3.24)
F59A/S63Q/V64F | 0.05 0.27 0.07 | 1 of 9 (3.81)
R57W/V64W/K65Y | ND ND ND | 0 of 9
Y60A/G99V | ND ND ND | 2 of 9 (4.38)
R56N/R57P/S63D | ND ND ND | 0 of 9
G26H/G33N/I34K | ND ND 3.75 | 0 of 9
G26T/R57M/R100C | ND ND ND | 0 of 9
R57N/S63V/G99V | ND ND ND | 0 of 9
G33P/I51D/A102D | ND ND ND | 0 of 9

The 6 strongest on average among those seen in every replicate, once more:

changes,"log10 Kd, replicates",empty controls
F59A/S63Q/V64F,0.05 0.27 0.07,1 of 9 (3.81)
G61N/S63F/R100W,0.59 0.82 0.52,0 of 9
T28N/I34L,1.49 1.52 1.70,3 of 9 (3.64)
N30Q/S53Q/A101K,2.24 2.22 2.34,2 of 9 (4.88)
T28C/D62N/S107H,2.70 2.46 3.30,4 of 9 (3.94)
R56Y/F59M/G61P,3.63 2.39 3.22,3 of 9 (4.38)